In US20080103162A1, “Antipruritics” (priority 2001, published 2008):

System: male ddY mice
Assay: compound 48/80-induced scratching behavior, intravenous administration (Test Example 1)
Assay type: in vivo
Details: intravenously administered five minutes before compound 48/80 (50 μg/0.1 ml, subcutaneous, back), FIG. 1 to FIG. 3

CCn1c(=O)n([C@@H]2CCN(CC3CCCCCCC3)C[C@H]2CO)c2ccccc21.Cl
scratching behavior suppressing effect (number of scratching behavior for 30 minutes): strong scratching behavior suppressing effect
